## Permeability data for macrocyclic peptides

PAMPA is the parallel artificial membrane permeability assay, which has no cells and reads passive diffusion. Permeability is in 10^-6 cm/s, converted from the database's log10 values; higher is more permeable.

compound,PAMPA (10^-6 cm/s)
CC(C)C[C@@H]1C(=O)N(C)[C@@H](CC(C)C)C(=O)N2CCC[C@H]2C(=O)N[C@H](CC(C)C)C(=O)N[C@@H](Cc2ccccc2)C(=O)N(C)[C@@H](C)C(=O)N1C,0.85
CC(C)C[C@@H]1NC(=O)[C@@H](CC(C)C)NC(=O)[C@H](C)N(C)C(=O)[C@H]2CCCN2C(=O)[C@H](Cc2ccccc2)NC(=O)[C@H](CC(C)C)N(C)C(=O)[C@H]2CCCN2C1=O,10
CC(C)C[C@@H]1C(=O)N2CCC[C@H]2C(=O)N(C)[C@H](CC(C)C)C(=O)N[C@@H](Cc2ccccc2)C(=O)N2CCC[C@H]2C(=O)N[C@@H](C)C(=O)N(C)[C@@H](CC(C)C)C(=O)N1C,4.4
CC(C)C[C@@H]1NC(=O)[C@@H](CC(C)C)N(C)C(=O)C[C@H](Cc2ccccc2)NC(=O)[C@H]2CCCN2C(=O)[C@H](Cc2ccccc2)NC(=O)[C@@H](CC(C)C)NC(=O)[C@@H]2CCCN2C1=O,4.4
CC(C)C[C@@H]1C(=O)N(Cc2ccccc2)CC(=O)N2CCC[C@@H]2C(=O)N(Cc2ccccc2)CC(=O)N[C@@H](Cc2ccccc2)C(=O)N2CCC[C@H]2C(=O)N(C)[C@H](C)C(=O)N1C,0.55
CC(C)C[C@@H]1NC(=O)[C@H](C)NC(=O)[C@H]2CCCN2C(=O)[C@H](Cc2ccccc2)NC(=O)[C@H](CC(C)C)NC(=O)[C@H]2CCCN2C(=O)[C@H](CC(C)C)NC1=O,0.27
CC(C)C[C@@H]1C(=O)N[C@@H](Cc2ccccc2)C(=O)N2CCC[C@H]2C(=O)N(C)[C@H](C)C(=O)N(C)[C@@H](CC(C)C)C(=O)N[C@@H](Cc2ccccc2)CC(=O)N2CCC[C@H]2C(=O)N1C,1.9
CC(C)C[C@@H]1NC(=O)C[C@H](Cc2ccccc2)NC(=O)[C@H](Cc2ccccc2)NC(=O)[C@@H](CC(C)C)N(C)C(=O)[C@H]2CCCN2C(=O)[C@@H](CC(C)C)N(C)C1=O,5.1
CCCN1CC(=O)N(Cc2ccccc2)CC(=O)N[C@@H](CC(C)C)C(=O)N2CCC[C@H]2C(=O)N(C)[C@@H](CC(C)C)C(=O)N[C@@H](Cc2ccccc2)C(=O)N2CCC[C@@H]2C1=O,6.6
CC(C)C[C@@H]1NC(=O)C[C@H](Cc2ccccc2)NC(=O)[C@@H]2CCCN2C(=O)[C@H](Cc2ccccc2)NC(=O)[C@H](CC(C)C)N(C)C(=O)[C@@H]2CCCN2C(=O)C[C@H](Cc2ccccc2)NC1=O,3
CCCN1CC(=O)N[C@@H](CC(C)C)C(=O)N[C@H](CC(C)C)C(=O)N2CCC[C@@H]2C(=O)N(Cc2ccccc2)CC(=O)N[C@@H](Cc2ccccc2)C(=O)N2CCC[C@H]2C1=O,2
CC(C)C[C@H]1NC(=O)C[C@H](Cc2ccccc2)NC(=O)[C@@H]2CCCN2C(=O)[C@H](Cc2ccccc2)NC(=O)[C@H](CC(C)C)N(C)C(=O)[C@@H]2CCCN2C(=O)CN(Cc2ccccc2)C1=O,1
CC(C)C[C@@H]1NC(=O)[C@H](CC(C)C)N(C)C(=O)[C@@H](C)NC(=O)[C@@H]2CCCN2C(=O)[C@H](Cc2ccccc2)NC(=O)[C@H](CC(C)C)N(C)C(=O)[C@@H]2CCCN2C1=O,2.5
CCCN1CC(=O)N[C@@H](CC(C)C)C(=O)N[C@H](CC(C)C)C(=O)N2CCC[C@@H]2C(=O)N(Cc2ccccc2)CC(=O)N[C@@H](Cc2ccccc2)C(=O)N2CCC[C@@H]2C1=O,2.8
CC(C)C[C@@H]1NC(=O)[C@@H](C)N(C)C(=O)[C@H](Cc2ccccc2)NC(=O)[C@@H](CC(C)C)NC(=O)[C@H]2CCCN2C(=O)[C@@H](CC(C)C)NC1=O,0.74
CC(C)C[C@@H]1NC(=O)[C@@H](C)N(C)C(=O)[C@@H]2CCCN2C(=O)[C@H](Cc2ccccc2)NC(=O)[C@H](CC(C)C)N(C)C(=O)[C@@H]2CCCN2C(=O)[C@@H](CC(C)C)N(C)C1=O,2.1
CC(C)C[C@@H]1C(=O)N2CCC[C@@H]2C(=O)N(Cc2ccccc2)CC(=O)N[C@@H](Cc2ccccc2)C(=O)N2CCC[C@@H]2C(=O)N[C@H](C)C(=O)N(C)[C@@H](CC(C)C)C(=O)N1C,1.6
CC(C)C[C@@H]1NC(=O)[C@@H](CC(C)C)NC(=O)C[C@H](Cc2ccccc2)NC(=O)[C@H](Cc2ccccc2)NC(=O)[C@H](CC(C)C)N(C)C(=O)[C@H]2CCCN2C1=O,7.6

Repeated from above, the 2 entries with the highest PAMPA:

| compound | PAMPA (10^-6 cm/s) |
|---|---|
| CC(C)C[C@@H]1NC(=O)[C@@H](CC(C)C)NC(=O)[C@H](C)N(C)C(=O)[C@H]2CCCN2C(=O)[C@H](Cc2ccccc2)NC(=O)[C@H](CC(C)C)N(C)C(=O)[C@H]2CCCN2C1=O | 10 |
| CC(C)C[C@@H]1NC(=O)[C@@H](CC(C)C)NC(=O)C[C@H](Cc2ccccc2)NC(=O)[C@H](Cc2ccccc2)NC(=O)[C@H](CC(C)C)N(C)C(=O)[C@H]2CCCN2C1=O | 7.6 |

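Conditions beyond the assay type are not listed; see the original paper. Other peptides of the study may be missing here. Peptides that the database sets to -10, its floor, are left out.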

Source: CycPeptMPDB (Li et al. 2023), which took these values from Townsend et al. 2020, doi:10.26434/chemrxiv.13335941.v1.